# Measurements: patent publication US10736971B2, “Peptide-based molecules for modulating car expression or accessibility and uses thereof” (Wright State University, priority 2015, dated 2020)
# Sequences of proteins named here, by UniProt entry; tags and fusion partners are left off. Residues count along the entry.
# UniProt Q96QZ7, 643-721 limits assumed: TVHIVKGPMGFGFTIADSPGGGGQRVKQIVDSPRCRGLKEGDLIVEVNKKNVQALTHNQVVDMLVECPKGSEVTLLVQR
# UniProt Q96QZ7, 472-554 limits assumed: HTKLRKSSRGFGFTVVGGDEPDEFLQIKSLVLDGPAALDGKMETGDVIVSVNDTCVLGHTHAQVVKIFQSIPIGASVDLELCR
# Experiments:
# [1] = test system: CAR^Ex8; test: Immunocytochemistry of CAR^Ex8 in polarized MDCK cells; format: cell-based, canine
# Excerpt: CAR^Ex8 is localized mainly at the apical surface of polarized MDCK cells. […] Red (CAR^Ex8), Green (MAGI-1, a junctional protein), Blue (nucleus, DAPI). 60× oil immersion confocal microscopy.
# (A) CAR^Ex8 (red) localizes mainly at the apical membrane of MDCK epithelial cells (see xz section). […] 60× oil immersion confocal microscopy.
# [2] = target: MAGI-1 PDZ3 domain; test: Ligand binding assay with purified MAGI-1 PDZ3 domain
# Excerpt: (§1) Ligand binding assay between TAT-ESAM and purified MAGI-1 PDZ1 or PDZ-3.
# (§2) MAGI-1 PDZ3 domain was used as a control.
# [3] = test system: CAR^Ex8; test: Western blot of CAR^Ex8 in well differentiated primary human airway epithelia; format: cell-based; conditions: versus control
# Excerpt: (A) Western blotting from human airway epithelia treated with either TAT-scramble or TAT-PDZ1 peptides (TAT-E6 or TAT-NET1). […] Actin was used to confirm equal protein loading.
# [4] = test system: MAGI-1-CAR^Ex8 interactions; test: Co-immunoprecipitation of MAGI-1 with Flag-CAR^Ex8 in inducible MDCK-CAR^Ex8 epithelia; format: cell-based, canine; conditions: 100 μM peptide, 200 ng/ml Dox for 24 hrs
# Protocol: (§3) (A) Western blotting of MDCK cells treated with either TAT-CAR^Ex8 or control TAT-CAR^Ex8-AA. […] (C) Polarized MDCK cells were treated with either TAT-CAR^Ex8 or TAT-ESAM and the apical surface subjected to apical surface biotinylation, followed by neutravidin pull down and Western blot of apical surface proteins. […] (E) TAT-cell permeable peptides interrupt MAGI-1-CAR^Ex8 interactions. Western immunoblots showing immunoprecipitates (IP, left lanes) from inducible MDCK-CAR^Ex8 epithelia pretreated with TAT-CAR^Ex8 or control TAT-CAR^Ex8-AA. Stable MDCK-CAR^Ex8 cells were induced with 200 ng/ml Dox for 24 hrs. After overnight induction, cells were treated with either TAT-CAR^Ex8 or TAT-CAR^Ex8-AA (100 μM). CAR^Ex8 was immunoprecipitated using flag antibody. MAGI-1 was blotted to determine co-IP. […] Right lanes show cell lysate with no immunoprecipitation, acting as positive controls. (F) TAT-CAR^Ex8 and TAT-ESAM-mediated increase of apical CAR^Ex8 is reduced by the protein synthesis inhibitor cycloheximide (CHX). Western immunoblotting of CAR^Ex8 in MDCK epithelia treated with either TAT-CAR^Ex8 or TAT-ESAM in the presence or absence of the protein synthesis inhibitor CHX. TAT-PDZ3 binding peptides increase CAR^Ex8 protein level, the effect was reduced upon pre-treatment with CHX. *p<0.05.
# [5] = test system: primary human airway epithelia; test: Epithelial integrity (TER, FITC-Dextran diffusion) and toxicity; format: cell-based
# Protocol: In panel (A), epithelial cells were seeded on transwells and treated with a single dose of PBS, TAT-scramble or TAT-PDZ3 (TAT-CAR^Ex8 or TAT-ESAM) peptides (50 μM) daily for 16 days. Transepithelial resistance (TER) was measured every other day for 16 days to indicate the amount of epithelial polarization. […] Each condition represents the average of 4 replicates. (B) FITC-Dextran 4 kDa diffusion across treated epithelia in the absence of EDTA. […] (C) Pre-treatment with EDTA to disrupt tight junctions increased Dextran 4 kDa permeability in all conditions. FITC-Dextran 4 kDa was added to the apical membrane compartment and Dextran present in the basolateral media was measured and quantified. […] FITC-Dextran 70 kDa was added to the apical membrane compartment and Dextran in the basolateral media was measured and quantified.
# (A) Primary human airway epithelial cells were treated with a single dose of PBS, TAT-scramble (50 μM), or TAT-PDZ1 peptides (50 μM) each day for 14 days. Transepithelial resistance (TER) was taken every other day for 14 days. No change in TER was noticeable upon treatment with TAT-PDZ1 peptides indicating similar epithelium formation. (B) FITC-Dextran 4 kDa diffusion across treated epithelia in the presence or absence of EDTA. There was no difference in Dextran 4 kDa diffusion among treatments indicating intact epithelial tight junctions. Pre-treatment with EDTA increased Dextran 4 kDa permeability similarly in all conditions indicating disruption of epithelial tight junctions. FITC-Dextran 4 kDa was added to the apical membrane and the diffused Dextran was collected from the basolateral media and measured. (C) There was no difference in Dextran 70 kDa diffusion among treatments indicating intact epithelial tight junctions. FITC-Dextran 70 kDa was added to the apical membrane and the diffused Dextran was collected from the basolateral media and measured.
# [6] = test system: CHO cells; test: Cell entry of TAT peptide (MALDI-TOF, TAMRA confocal microscopy) in CHO cells; format: cell-based, Chinese hamster; conditions: 1 hr at 37° C.
# Protocol: (§4) MALDI-TOF analysis of TAT-CAR^Ex8 peptides associate with (A) CHO cells (non-epithelial) and (B) MDCK epithelia. […] CHO or MDCK were incubated with either TAT-CAR^Ex8 or vehicle for 1 hr at 37° C. Cell pellets obtained were used for MALDI-TOF. TAT-CAR^Ex8 enters cells and peaked at m/z 2536. (C) CHO or (D) MDCK cells were treated with either vehicle control (PBS) or fluorescently labelled TAMRA-TAT-CAR^Ex8. Peptide was detectable within 1 h after incubation inside cells. White arrows indicate ER/Golgi region of cell with intense TAMRA (red) fluorescence. 60× oil immersion confocal microscopy, White line=10 μm.
# [7] = test system: AdV; test: qPCR of AdV viral genome in primary human airway epithelia; format: cell-based; conditions: versus control
# [8] = target: MAGI-1 PDZ2 domain (Homo sapiens, UniProt Q96QZ7); test: Ligand binding assay with MAGI-1 PDZ2 domain (control); conditions: not shown
# Excerpt: as §1
# [9] = test system: MDCK epithelia; test: Cell entry of TAT peptide (MALDI-TOF, TAMRA confocal microscopy) in MDCK epithelia; format: cell-based, canine; conditions: 1 hr at 37° C.
# Protocol: as §4
# [10] = test system: AdV; test: qPCR of AdV viral genome (transduction/entry) in MDCK epithelia; format: cell-based, canine; conditions: versus control
# Excerpt: (§5) MAGI-1 PDZ binding peptides (BP) can alter CAR^EX8 apical protein levels and AdV infection. […] A) MAGI-1 PDZ1 can rescue CAR^Ex8 expression while PDZ3 decreases CAR^EX8 expression. B) Peptides that bind to PDZ3 will prevent degradation of CAR^Ex8 and rescue CAR^EX8 expression and C) peptides that bind to PDZ1 will prevent rescue of CAR^Ex8 and […] CAR^Ex8 degradation. D) Apical surface-specific biotinylation of polarized MDCK epithelia treated with PDZ1 binding peptide decreases apical levels of CAR^EX8 while PDZ3 binding peptide increase apical CAR^EX8, relative to control. E) Treatment with PDZ3 binding peptide increases while PDZ1 binding peptide decreases AdV5-β-Gal entry as determined by qPCR for viral genomes (Vg). F) AdV5-Cre infection turns cells from red (uninfected) to green (infected) in tDT-mouse airway epithelial cells. Baseline infection in control-peptide treated airway epithelia show an even distribution of uninfected red cells and infected green cells.
# (A) Western blotting of MDCK cells treated with either TAT-CAR^Ex8 or control TAT-CAR^Ex8-AA. […] (C) Polarized MDCK cells were treated with either TAT-CAR^Ex8 or TAT-ESAM and the apical surface subjected to apical surface biotinylation, followed by neutravidin pull down and Western blot of apical surface proteins. […] (E) TAT-cell permeable peptides interrupt MAGI-1-CAR^Ex8 interactions. […]
# [11] = test system: CAR^Ex8; test: Western blot / apical surface biotinylation of CAR^Ex8 in MDCK epithelia; format: cell-based, canine
# Excerpt: as §5, §3
# (A) Western Blotting from MDCK epithelia treated with either TAT-scramble or TAT-PDZ1 peptides (TAT-E6 or TAT-NET1). […] Actin was used to confirm equal protein loading. […] (C) TAT-PDZ1 binding peptides decrease CAR^Ex8 by inducing degradation of the translated protein as shown by Western Blotting of cell lysate from MDCK epithelia treated with TAT-PDZ1 peptides in the presence or absence of the proteosomal and RIP inhibitor, MG-132. […]
# [12] = test system: AdV5-Cre; test: AdV5-Cre intranasal infection of tdT mice; format: in vivo, mouse
# Excerpt: as §5
# Analysis of lung cryosections from tdT mice pretreated with A) No virus, B) Control (PBS or TAT-CAR^Ex8-AA), or C) PDZ3 TAT-ESAM binding peptide 4 h prior to AdV5-Cre intranasal infection. 20× confocal microscopy. (D) Quantitative analysis of GFP expressing cells in lung cryosections from tdT mice with no virus, pre-treated with control, or PDZ3 binding TAT-ESAM peptides. (E) Quantification of total GFP/Total RFP fluorescence in lung section of different treated conditions by image J analysis. […] Data are average of quantification from 10 sections. *p<0.05.
# (A) Quantitative RT-PCR for GFP mRNA expression after isolation of total RNA from lung tissue of control or peptide treated mice. (B) QPCR of viral genome copies in lung tissue from control or peptide treated mice.
# Analysis of lung cryosections from tdT mice pretreated with A) No virus, B) Control (PBS), C) PDZ1 TAT-NET1 binding peptide, 4 h prior to AdV5-Cre intranasal infection in B) and C). 20× confocal microscopy. D) Quantitative analysis of the number of GFP expressing cells in lung cryosections from tdT mice with no virus, pre-treated with control PDZ1 TAT-NET1 peptides. E) Quantification of total GFP/Total RFP fluorescence in lung section of different treated conditions by image J analysis. […] Data are average of quantification from 10 sections. *p<0.05.
# (A) In tdT tomato mice, all cells contain red fluorescent Tomato protein and fluoresce red. Upon expression of cre recombinase via AdV-Cre infection, infected cells cleave out the tdT gene and express GFP making infected cells fluoresce green. […] F) Quantitation of GFP positive cells per field of view. G) Quantitative RT-PCR for GFP mRNA relative to uninfected tdT mice. […]
# [13] = target: MAGI-1 PDZ1 domain (Homo sapiens, UniProt Q96QZ7); test: Ligand binding assay with purified MAGI-1 PDZ1 domain
# Excerpt: as §1, §2
smiles,measurement,setting,value
CC[C@H](C)[C@H](NC(=O)CNC(=O)[C@H](CC(=O)O)NC(=O)[C@@H](NC(=O)[C@H](CCCCN)NC(=O)[C@H](Cc1ccc(O)cc1)NC(=O)[C@H](CCCNC(=N)N)NC(=O)[C@H](CCCNC(=N)N)NC(=O)[C@H](CCCNC(=N)N)NC(=O)[C@H](CCC(N)=O)NC(=O)[C@H](CCCNC(=N)N)NC(=O)[C@H](CCCNC(=N)N)NC(=O)[C@H](CCCCN)NC(=O)[C@H](CCCCN)NC(=O)[C@H](CCCNC(=N)N)NC(=O)CNC(=O)[C@@H](N)Cc1ccc(O)cc1)[C@@H](C)O)C(=O)N[C@H](C(=O)N[C@H](C(=O)N[C@H](C(=O)O)C(C)C)C(C)C)[C@@H](C)O [TAT-CAR^Ex8],CAR^Ex8 immunolocalization / cellular protein level,[1]; polarized MDCK,upregulated in a vesicular pattern within the cytoplasm and at the apical surface
same,Kd,[2],0.004 ± 0.002 µM
same,CAR^Ex8 protein level (Western blotting),[3],increased
same,MAGI-1 coimmunoprecipitated with Flag-CAR^Ex8,[4],marked reduction
same,Transepithelial resistance (TER),"[5]; 50 μM daily for 16 days, versus control",No difference
same,FITC-Dextran 70 kDa diffusion across epithelia,[5]; TAT-PDZ3 peptide study,no difference
same,FITC-Dextran 4 kDa diffusion across epithelia,"[5]; absence of EDTA, TAT-PDZ3 peptide study",no difference
same,Toxicity to epithelia,[5]; primary human airway epithelia,no overt toxicity
same,Peptide entry into cells (MALDI-TOF of cell pellets),[6],enters cells
same,AdV genomic transduction / entry (qPCR of viral genome),[7],significant increase
same,Binding to MAGI-1 PDZ2,[8],Lack of binding
same,Peptide entry into cells (MALDI-TOF of cell pellets),[9],enters cells
same,AdV genomic transduction / entry (qPCR of viral genome),[10],significant increase
same,CAR^Ex8 protein level (Western blotting),[11]; MDCK epithelia,marked increase
same,Peptide-mediated increase of CAR^Ex8 upon pre-treatment with cycloheximide (CHX),"[11]; MDCK epithelia, with CHX",reduced
same,Apical CAR^Ex8 (apical surface biotinylation),[11]; polarized MDCK epithelia,increase
CC(C)C[C@H](NC(=O)[C@@H](NC(=O)[C@H](CCC(=O)O)NC(=O)[C@H](CCCCN)NC(=O)[C@H](CCCCN)NC(=O)[C@H](CCCCN)NC(=O)CNC(=O)CNC(=O)[C@H](CCC(N)=O)NC(=O)[C@@H]1CCCN1C(=O)[C@@H]1CCCN1C(=O)[C@H](CCCNC(=N)N)NC(=O)[C@H](CCCNC(=N)N)NC(=O)[C@H](CCCNC(=N)N)NC(=O)[C@H](CCC(N)=O)NC(=O)[C@H](CCCNC(=N)N)NC(=O)[C@H](CCCNC(=N)N)NC(=O)[C@H](CCCCN)NC(=O)[C@H](CCCCN)NC(=O)[C@H](CCCNC(=N)N)NC(=O)CN)[C@@H](C)O)C(=O)N[C@H](C(=O)O)C(C)C [TAT-NET1],Effect on junctional staining of MAGI-1,"[1]; MDCK, 50 μM",minor to no effect
same,Immunolocalization of endogenous CAR^Ex8,"[1]; MDCK, 50 μM",delocalization of CAR^Ex8 to the nuclear compartment
same,"GFP expression (GFP positive cells per field of view, GFP mRNA)","[12]; AdV5-Cre intranasal infection, versus control",decreased
same,"GFP expression in lung cryosections (GFP expressing cells, total GFP/Total RFP fluorescence)",[12]; peptide 4 h prior to AdV5-Cre intranasal infection,significantly lower
same,GFP mRNA expression in lung tissue (quantitative RT-PCR),[12]; versus control,significant decrease
same,Viral genome copies in lung tissue (QPCR),[12]; versus control,significant decrease
same,CAR^Ex8 protein level (Western blotting),[3],marked decrease
same,Kd,[13],0.028 ± 0.011 µM
same,AdV genomic transduction / entry (qPCR of viral genome),[7],significant decrease
same,AdV genomic transduction / entry (qPCR of viral genome),[10],significant decrease
same,CAR^Ex8 protein level (Western blotting),[11]; MDCK epithelia,marked decrease
